How the values were obtained:
[1] = biological target: Nociceptin receptor (Homo sapiens) (UniProt P41146); experiment: Agonist activity at human NOP expressed in CHO cell membrane incubated for 60 mins by [35S]GTPgammaS binding assay relative to N/OFQ
Homo sapiens [2] = species on record: Homo sapiens; experiment: Selectivity index, ratio of Ki for human MOP expressed in CHO cell membrane to Ki for human NOP expressed in CHO cell membrane
Homo sapiens [3] = species on record: Homo sapiens; experiment: Selectivity index, ratio of Ki for human KOP expressed in CHO cell membrane to Ki for human NOP expressed in CHO cell membrane
Homo sapiens [4] = species on record: Homo sapiens; experiment: Selectivity index, ratio of Ki for human DOP expressed in CHO cell membrane to Ki for human NOP expressed in CHO cell membrane
[5] = biological target: Mu-type opioid receptor (Homo sapiens) (UniProt P35372); experiment: Agonist activity at human MOP expressed in CHO cell membrane incubated for 60 mins by [35S]GTPgammaS binding assay relative to DAMGO

The chains behind the UniProt entries cited, without tags or fusion partners. Where a name states a change or a piece, a line headed by the entry shows the natural chain unless it says otherwise.
UniProt P41146: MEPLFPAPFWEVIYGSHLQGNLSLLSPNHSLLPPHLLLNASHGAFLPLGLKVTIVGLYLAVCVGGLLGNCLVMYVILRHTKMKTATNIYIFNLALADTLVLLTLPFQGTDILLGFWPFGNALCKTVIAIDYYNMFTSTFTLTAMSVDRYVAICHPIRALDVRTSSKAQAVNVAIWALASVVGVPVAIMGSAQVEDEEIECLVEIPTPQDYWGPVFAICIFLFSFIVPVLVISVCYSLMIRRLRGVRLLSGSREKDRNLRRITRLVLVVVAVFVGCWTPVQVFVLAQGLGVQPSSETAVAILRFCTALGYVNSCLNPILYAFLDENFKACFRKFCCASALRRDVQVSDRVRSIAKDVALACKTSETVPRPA
UniProt P35372, whole entry, looked up: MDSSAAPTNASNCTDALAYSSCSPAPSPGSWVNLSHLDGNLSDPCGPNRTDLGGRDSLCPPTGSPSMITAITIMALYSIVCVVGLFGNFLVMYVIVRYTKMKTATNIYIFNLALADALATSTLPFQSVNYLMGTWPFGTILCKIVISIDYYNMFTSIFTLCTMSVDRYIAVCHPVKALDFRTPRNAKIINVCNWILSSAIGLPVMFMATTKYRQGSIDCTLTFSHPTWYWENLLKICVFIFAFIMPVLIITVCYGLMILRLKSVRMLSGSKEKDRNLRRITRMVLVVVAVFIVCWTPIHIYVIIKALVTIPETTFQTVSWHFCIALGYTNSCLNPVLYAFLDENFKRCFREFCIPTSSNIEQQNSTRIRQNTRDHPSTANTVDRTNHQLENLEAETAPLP

SMILES | Activity [1] [%] | Ratio Ki (Homo sapiens [2]) | Ratio Ki (Homo sapiens [3]) | Ratio Ki (Homo sapiens [4]) | Activity [5] [%]
CC(C)[C@H]1CC[C@@H](N2CCC(n3cc(CN4CCCC4)c4ccccc43)CC2)CC1 | 87.9 | > 200 | > 200 | > 200 | 
CC(C)[C@H]1CC[C@@H](N2CCC(N3CCc4ccccc43)CC2)CC1 | 33 | > 40 | > 40 | > 40 | 
CC(C)[C@H]1CC[C@@H](N2CCC(n3cc(CCCNC(N)=S)c4ccccc43)CC2)CC1 | 34.5 |  |  |  | 
CC(C)[C@H]1CC[C@@H](N2CCC(n3cc(CN4CC(O)C4)c4ccccc43)CC2)CC1 | 34.3 |  |  |  | 
CC(C)[C@H]1CC[C@@H](N2CCC(n3cc(CN(C)C)c4ccccc43)CC2)CC1 | 28.1 |  |  |  | 
CCNCC(=O)NCc1cn(C2CCN([C@H]3CC[C@@H](C(C)C)CC3)CC2)c2ccccc12 | 15.9 |  |  |  | 
CC(C)[C@H]1CC[C@@H](N2CCC(n3cc(CN4CC[C@@H](O)C4)c4ccccc43)CC2)CC1 | 69.9 |  |  |  | 
CC(C)[C@H]1CC[C@@H](N2CCC(n3cc(CCNC(N)=S)c4ccccc43)CC2)CC1 | 5.6 |  |  |  | 
CC(C)[C@H]1CC[C@@H](N2CCC(n3cc(CN)c4ccccc43)CC2)CC1 | 5.7 | 20 |  |  | 11.8
CC(C)[C@H]1CC[C@@H](N2CCC(n3ccc4ccccc43)CC2)CC1 | 29.3 | > 40 | > 40 | > 40 | 16.3
CC(C)[C@H]1CC[C@@H](N2CCC(n3cc(CNC(=O)CCCCCN)c4ccccc43)CC2)CC1 | 37.7 |  |  |  | 
CC(C)[C@H]1CC[C@@H](N2CCC(n3cc(CCCN)c4ccccc43)CC2)CC1 | 18.6 |  |  |  | 15.7
CC(C)[C@H]1CC[C@@H](N2CCC(n3cc(CN4CCC(O)CC4)c4ccccc43)CC2)CC1 | 10.6 |  |  |  | 
CC(C)[C@H]1CC[C@@H](N2CCC(n3cc(/C=N/O)c4ccccc43)CC2)CC1 | 85.9 | 25 |  |  | 37.5
CC(C)[C@H]1CC[C@@H](N2CCC(n3cc(CO)c4ccccc43)CC2)CC1 | 18.9 |  |  |  | 
CC(C)[C@H]1CC[C@@H](N2CCC(n3cc(CNC(N)=S)c4ccccc43)CC2)CC1 | 51.2 |  |  |  | 9.8
CC(C)[C@H]1CC[C@@H](N2CCC(n3cc(CCN)c4ccccc43)CC2)CC1.Cl.Cl | 27.8 |  |  |  | 

From ChEMBL document CHEMBL4354845, “Discovery and Structure-Activity Relationships of Nociceptin Receptor Partial Agonists That Afford Symptom Ablation in Parkinson's Disease Models” (J Med Chem, 2020)
